Laboratory results published in patent US20230144203A1, “DRUG CONJUGATE OF ERIBULIN DERIVATIVE, PREPARATION METHOD THEREFOR AND APPLICATION THEREOF IN MEDICINE” (SHANGHAI SENHUI MEDICINE CO., LTD., priority 2020, published 2023).

Assay: Test Example 6 pharmacokinetic study in beagles
Settings: male, beagle, dog, in vivo, iv, 0.5 mg/kg
Procedure: The pharmacokinetic performance in beagles of the compounds of the present disclosure was studied and the pharmacokinetic profile thereof was evaluated.
Male 6 beagles were divided into 2 groups of 3, purchased from Shanghai Medicilon Inc., and subjected to administration test.
Plasma samples were stored in a refrigerator at −80° C. prior to testing. […] The plasma concentration of the test compounds in beagles after drug injection was determined: after administration, 25 μL of beagle plasma at various times after administration was taken, and added with 50 μL (100 ng/mL) of internal standard solution camptothecin (National Institutes for Drug Control) and 200 μL of acetonitrile. The mixture was vortexed for 5 min and centrifuged for 10 min (3700 rpm/min). 3 to 4 μL of the supernatant of the plasma sample was subjected to LC/MS assay (API4000 triple quadrupole tandem mass spectrometer (No. 2), Applied Biosystems, USA; Shimadzu, LC-30AD ultra high performance liquid chromatography system, Shimadzu, Japan.) The analysis was performed.

C=C1C[C@@H]2CC[C@@]34C[C@H]5O[C@H]6[C@@H](O3)[C@H]3O[C@H](CC[C@@H]3O[C@H]6[C@H]5O4)CC(=O)C[C@@H]3[C@@H](OC)[C@@H](C[C@H](O)CN)O[C@H]3C[C@H]3O[C@@H](CC[C@@H]1O2)C[C@@H](C)C3=C [Eribulin, eribulin]
AUC(0-t): 106 ng·h/mL | MRT: 3.7 h | Vd: 15.6 L/kg | clearance: 78 mL/min/kg | half-life: 3.5 h
